# Key:
# [1] = molecular target: microtubules polymerized from purified tubulin; assay: co-sedimentation; Syn 0.5-32 μM incubated 20 min at 37 °C with paclitaxel-stabilized preformed MTs (4 μM tubulin dimers), 70000 x g 15 min 25 °C; Syn in supernatant and pellet by western blot; bound versus free fitted to a standard binding equation; apparent Kd
# [2] = molecular target: tubulin (free αβ dimers; α2β2 tetramer)
substance,measurement,setting,value
"α-Synuclein, wild type (recombinant) (from UniProt P37840 1-140) (natural protein)",Kd,[1],7.48 µM
same,"MT catastrophe frequency by VE-DIC microscopy, tubulin 10 μM, preincubated Syn 0-10 μM (0.16 without Syn)",[2],1.04 min⁻¹
same,"MT catastrophe frequency by VE-DIC microscopy, tubulin 15 μM, preincubated Syn 0-15 μM (0.09 without Syn)",[2],0.27 min⁻¹
same,"MT growth rate by VE-DIC microscopy, tubulin 10 μM, preincubated Syn 0-10 μM (1.2 without Syn)",[2],1.38 μm/min
same,"MT growth rate by VE-DIC microscopy, tubulin 15 μM, preincubated Syn 0-15 μM (1.1 without Syn)",[2],1.38 μm/min
